The text below walks through data of ChEMBL document CHEMBL4130523, “Targeting the Allosteric Site of Oncoprotein BCR-ABL as an Alternative Strategy for Effective Target Protein Degradation” (ACS Med Chem Lett, 2017).

The chains behind the UniProt entries cited, without tags or fusion partners.
UniProt P00519, whole entry: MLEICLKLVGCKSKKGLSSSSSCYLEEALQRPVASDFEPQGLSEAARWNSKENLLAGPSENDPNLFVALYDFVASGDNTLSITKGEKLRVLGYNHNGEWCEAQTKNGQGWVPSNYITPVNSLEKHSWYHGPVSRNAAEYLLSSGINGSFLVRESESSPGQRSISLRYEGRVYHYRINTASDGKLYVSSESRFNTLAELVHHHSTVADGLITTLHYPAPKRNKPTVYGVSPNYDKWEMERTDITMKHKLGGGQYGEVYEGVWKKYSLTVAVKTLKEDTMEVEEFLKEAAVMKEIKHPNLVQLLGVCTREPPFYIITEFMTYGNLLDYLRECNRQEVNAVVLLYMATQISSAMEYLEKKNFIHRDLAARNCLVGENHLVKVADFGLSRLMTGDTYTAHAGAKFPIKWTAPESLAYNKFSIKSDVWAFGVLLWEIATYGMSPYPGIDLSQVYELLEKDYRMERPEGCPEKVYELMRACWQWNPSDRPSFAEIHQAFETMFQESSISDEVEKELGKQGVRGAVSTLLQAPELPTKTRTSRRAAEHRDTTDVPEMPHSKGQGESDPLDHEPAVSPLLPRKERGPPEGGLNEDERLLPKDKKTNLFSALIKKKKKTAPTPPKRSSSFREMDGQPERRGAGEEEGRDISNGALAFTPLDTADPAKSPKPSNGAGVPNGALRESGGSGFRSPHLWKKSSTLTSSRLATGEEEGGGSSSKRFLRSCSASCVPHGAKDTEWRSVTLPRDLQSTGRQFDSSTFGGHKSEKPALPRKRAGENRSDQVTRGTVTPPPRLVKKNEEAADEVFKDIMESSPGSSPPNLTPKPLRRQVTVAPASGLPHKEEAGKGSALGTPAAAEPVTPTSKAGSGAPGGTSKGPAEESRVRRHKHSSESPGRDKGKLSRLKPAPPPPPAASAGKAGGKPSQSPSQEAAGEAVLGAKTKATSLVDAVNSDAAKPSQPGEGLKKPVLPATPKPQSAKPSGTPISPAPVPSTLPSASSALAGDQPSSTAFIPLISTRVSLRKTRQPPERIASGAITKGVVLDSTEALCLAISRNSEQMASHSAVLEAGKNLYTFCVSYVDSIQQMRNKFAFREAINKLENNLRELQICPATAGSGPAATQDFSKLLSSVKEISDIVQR

In the test the target is Tyrosine-protein kinase ABL1 (Homo sapiens, UniProt P00519). Description: Inhibition of recombinant human His-tagged full length ABL1 allosteric site expressed in baculovirus expression system by TR-FRET assay. Background: Time-resolved FRET reads energy transfer from a long-lived donor to a nearby acceptor.

As a reminder, the IC50 is the midpoint of a concentration-inhibition curve. As for `O=C(NCCO)c1cccc(-c2cc(Nc3ccc(OC(F)(F)F)cc3)ncn2)c1`, the IC50 was 2 µM.
